{"source": "patent US4626283A", "about": "“Corrosion and marine growth inhibiting compositions” (Engelhard Corporation, priority 1985, dated 1986)", "assay": "Salt spray test, alkyd formulations (Example VI, FIG. 3)", "details": "alkyd formulation, ASTM B117-73, in words", "data": [{"substance": "Zinc Succinate Ethylenediamine [Compound 1]", "values": [{"measurement": "Salt spray durability, comparison", "value": "superior to \"Zinc Yellow\" (zinc chromate) in salt spray durability"}]}]}
